Experimental data taken from patent US20070254831A1 (published 2007).

Chains of the proteins cited; added tags and fusions are not shown. Residues count along the entry.
UniProt P55899, 24-297 limits assumed, chain 1 of 2: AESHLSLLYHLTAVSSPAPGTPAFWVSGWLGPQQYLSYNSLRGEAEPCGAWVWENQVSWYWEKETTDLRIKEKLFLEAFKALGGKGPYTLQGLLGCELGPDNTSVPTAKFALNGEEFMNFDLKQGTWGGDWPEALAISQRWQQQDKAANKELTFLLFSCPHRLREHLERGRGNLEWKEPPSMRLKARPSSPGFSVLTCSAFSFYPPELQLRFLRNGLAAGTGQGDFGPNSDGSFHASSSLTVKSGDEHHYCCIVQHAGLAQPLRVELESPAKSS

B1: Peptide No. 182 (peptide)
peptide: RFVTGHFXLYPA
modifications: X at 8 = 3-amino-2-oxo-1-piperidine-acetic acid (drawing CHEM-US-00094); linear; C-terminal amide

The binders below were run against T1, soluble human FcRn (human, UniProt P55899 24-297; P61769 21-119, biotinylated (Sulfo-NHS-LC-Biotin) in the ELISA; amine-coupled to CM5 chip in SPR) (assay: SPR, pH 6).
T1 construct: also called shFcRn; biotinylated shFcRn
Procedure: (§1) The following steps were performed to cross-link soluble human or cynomolgus FcRn to the dextran surface of a CM5 sensor chip (Biacore AB, Uppsala, Sweden) by an amine coupling reaction involving 1-ethyl-(3-dimethylaminopropyl)-carbodiimide hydrochloride (EDC) (Biacore AB, Uppsala, Sweden) and N-hydroxysuccinimide (NHS) (Biacore AB, Uppsala, Sweden) as recommended by Biacore (BIAapplications Handbook, version AB, section 4.2, Biacore AB, Uppsala, Sweden). […] Residual sites on the FcRn flow cell were blocked with 1 M ethanolamine hydrochloride pH 8.5 (Biacore AB, Uppsala, Sweden). A control flow cell was blocked with ethanolamine for reference subtraction. For analysis of the monomeric peptides, FcRn was coated to a final density of 4000-5000 response units (RU). For analysis of the peptide dimers, FcRn was coated to a density of 2000-2500 RU. All SPR measurements were performed using a BIACORE 3000 Instrument (Biacore AB Uppsala, Sweden). For measurements done at either pH 6 or pH 7.4, experiments were performed in 50 mM phosphate, 100 mM sodium chloride, 0.01% surfactant P20 (Biacore AB, Uppsala, Sweden).
(§2) The peptide was dissociated from the chip for 2.5 minutes with buffer. […] Sensorgrams were generated and analyzed using BiaEval software version 3.1 (Biacore AB, Uppsala, Sweden). The equilibrium RU observed for each injection was plotted against concentration.
AGNSFCRGRPGHFGGCYLFGTGGGK (disulfide; C-terminal amide) [SEQ ID NO:10] was tested, and the Kd was 9.4 µM.
Work on QRFXTGHFGPLYPCNGP (Pen at 4; D-Pro at 10; disulfide; C-terminal amide) [Peptide No. 40] yielded a Kd of 0.23 µM.
In the case of QRFXTGHFGILYPCNGP (Pen at 4; D-Ile at 10; disulfide; C-terminal amide) [Peptide No. 43], the Kd is reported as 2.2 µM.
In the case of QRFXTGHFPGLYPCNGP (Pen at 4; D-Pro at 9; disulfide; C-terminal amide) [Peptide No. 48], the Kd is reported as 0.79 µM.
QRFXTGHFHGLYPCNGP (Pen at 4; D-His at 9; disulfide; C-terminal amide) [Peptide No. 50] gave a Kd of 0.41 µM.
QRFXTGHFIGLYPCNGP (Pen at 4; D-Ile at 9; disulfide; C-terminal amide) [Peptide No. 51] gave a Kd of 2.6 µM.
Binder QRFXTGHFYGLYPCNGP (Pen at 4; D-Tyr at 9; disulfide; C-terminal amide) [Peptide No. 53] has a Kd of 0.32 µM.
Binder QRFXTGHWGGLYPCNGP (Pen at 4; disulfide; C-terminal amide) [Peptide No. 95] has a Kd of 2.7 µM.
With QRFXTGHFFALYPCNGP (Pen at 4; D-Phe at 9; D-Ala at 10; disulfide; C-terminal amide) [Peptide No. 151] the Kd was 0.41 µM.
For QRFXTGHFPPLYPCNGP (Pen at 4; D-Pro at 9 and 10; disulfide; C-terminal amide) [Peptide No. 152], the Kd was 3.3 µM.
Binder QRFXTGHXGGLYPCNGP (Pen at 4; 1-napthylalanine at 8; disulfide; C-terminal amide) [Peptide No. 61] has a Kd of 2.2 µM.
Binder QRFXTGHXGGLYPCNGP (Pen at 4; Cha at 8; disulfide; C-terminal amide) [Peptide No. 93] has a Kd of 4.5 µM.
For QRFXTGHFGGLXPCNGP (Pen at 4; 4-methoxyPhe at 12; disulfide; C-terminal amide) [Peptide No. 64], the Kd was 31 µM.
QRFCTGXFGGLYPCNGP (Dab at 7; disulfide; C-terminal amide) [Peptide No. 36] was tested, and the Kd was 211 µM.
Work on RFXTGFFGGLYPC (Pen at 3; Sar at 9; NMeLeu at 10; disulfide; C-terminal amide) [Peptide No. 265] yielded a Kd of 3.3 µM.
RFXTGHFXLYPC (Pen at 3; X at 8 = 6,5-bicyclic dipeptide mimic; disulfide; C-terminal amide) [Peptide No. 204] showed a Kd of 0.32 µM.
For QRFDTGHFGGLYPXNGP (Dab at 14; side-chain lactam bridge Asp 4-Dab 14; C-terminal amide) [Peptide No. 38], the Kd was 17 µM.
QRFDTGHFGGLYPXNGP (Orn at 14; side-chain lactam bridge Asp 4-Orn 14; C-terminal amide) [Peptide No. 85] was tested, and the Kd was 2.7 µM.
Binder QRFDTGHFGPLYPKNGP (D-Pro at 10; side-chain lactam bridge Asp 4-Lys 14; C-terminal amide) [Peptide No. 159] has a Kd of 1.2 µM.
In the case of QRFVTGHFGPLYPANGP (D-Pro at 10; linear; C-terminal amide) [Peptide No. 157], the Kd is reported as 16 µM.
QRFVTGHFGPWYPINGP (D-Pro at 10; linear; C-terminal amide) [Peptide No. 190] showed a Kd of 4.2 µM.
B1 showed a Kd of 3.3 µM.

Each binder was assayed against T1, soluble human FcRn (assay: SPR, pH 7.4).
Procedure: as §1, §2
Work on AGKIICSPGHFGGMYCQGKGTGGGK (disulfide; C-terminal amide) [SEQ ID NO:8] yielded a Kd of 78 µM.
Work on AGNSFCRGRPGHFGGCYLFGTGGGK (disulfide; C-terminal amide) [SEQ ID NO:10] yielded a Kd of 93 µM.
For QRFXTGHFGYLYPCNGP (Pen at 4; D-Tyr at 10; disulfide; C-terminal amide) [Peptide No. 45], the Kd was 31 µM.
QRFXTGHFPGLYPCNGP (Pen at 4; D-Pro at 9; disulfide; C-terminal amide) [Peptide No. 48] gave a Kd of 21 µM.
RFCTGHFGGLYPCNGP (disulfide; C-terminal amide) [SEQ ID NO:21] was tested, and the Kd was 78 µM.
Work on FCTGHFGGLYPCNGP (disulfide; C-terminal amide) [SEQ ID NO:22] yielded a Kd of 120 µM.
QRFCTGHFGGLYPCNG (disulfide; C-terminal amide) [SEQ ID NO:23] gave a Kd of 69 µM.
RFXTGFFGGLYPC (Pen at 3; Sar at 9; NMeLeu at 10; disulfide; C-terminal amide) [Peptide No. 265] gave a Kd of 4.2 µM.
RFXTGAFGGLYPC (Pen at 3; Sar at 9; NMeLeu at 10; disulfide; C-terminal amide) [Peptide No. 266] was tested, and the Kd was 13 µM.
Binder QRFDTGHFGGLYPXNGP (Dab at 14; side-chain lactam bridge Asp 4-Dab 14; C-terminal amide) [Peptide No. 38] has a Kd of 150 µM.

Each binder was assayed against T1, soluble human FcRn (assay: ELISA, competitor human IgG).
Procedure: To allow for mixing, the plate was rocked for 2 minutes, sealed and incubated at 37° C. for 2 hours. […] Once color developed, 100 μl/well of TMB stop solution (KPL, Gaithersburg, Md.) was added and the absorbance was measured at 450 nm.
Binder AGNSFCRGRPGHFGGCYLFGTGGGK (disulfide; C-terminal amide) [SEQ ID NO:10] has an IC50 of 33 µM.
Binder FXTGHFGPLYPC (Pen at 2; D-Pro at 8; disulfide; C-terminal amide) [Peptide No. 143] has an IC50 of 1.7 µM.
For QRFXTGHFGHLYPCNGP (Pen at 4; D-His at 10; disulfide; C-terminal amide) [Peptide No. 42], the IC50 was 12 µM.
QRFXTGHFGFLYPCNGP (Pen at 4; D-Phe at 10; disulfide; C-terminal amide) [Peptide No. 44] gave an IC50 of 13 µM.
QRFXTGHFGYLYPCNGP (Pen at 4; D-Tyr at 10; disulfide; C-terminal amide) [Peptide No. 45] gave an IC50 of 13 µM.
With QRFXTGHFDGLYPCNGP (Pen at 4; D-Asp at 9; disulfide; C-terminal amide) [Peptide No. 47] the IC50 was 3.1 µM.
QRFXTGHFIGLYPCNGP (Pen at 4; D-Ile at 9; disulfide; C-terminal amide) [Peptide No. 51] was tested, and the IC50 was 9.4 µM.
For QRFXTGHFYGLYPCNGP (Pen at 4; D-Tyr at 9; disulfide; C-terminal amide) [Peptide No. 53], the IC50 was 3.2 µM.
For QRFXTGHFGGLYPDNGP (Dab at 4; side-chain lactam bridge Dab 4-Asp 14; C-terminal amide) [Peptide No. 81], the IC50 was 31 µM.
For QRFXTGHFAALYPCNGP (Pen at 4; D-Ala at 9 and 10; disulfide; C-terminal amide) [Peptide No. 148], the IC50 was 4.5 µM.
QRFXTGHFFPLYPCNGP (Pen at 4; D-Phe at 9 (L-Pro at 10); disulfide; C-terminal amide) [Peptide No. 203] showed an IC50 of 22 µM.
Work on QRFCTGHFGGLYPC (disulfide; C-terminal amide) [SEQ ID NO:18] yielded an IC50 of 27 µM.
With QRFXTGHXGGLYPCNGP (Pen at 4; 1-napthylalanine at 8; disulfide; C-terminal amide) [Peptide No. 61] the IC50 was 13 µM.
QRFXTGHXGGLYPCNGP (Pen at 4; 4-MePhe at 8; disulfide; C-terminal amide) [Peptide No. 90] showed an IC50 of 1.7 µM.
QRFXTGHXGGLYPCNGP (Pen at 4; Cha at 8; disulfide; C-terminal amide) [Peptide No. 93] showed an IC50 of 31 µM.
QRFCTGHFGGLYPCN (disulfide; C-terminal amide) [SEQ ID NO:24] was tested, and the IC50 was 31 µM.
For RFXTGFFGGLYPC (Pen at 3; Sar at 9; NMeLeu at 10; disulfide; C-terminal amide) [Peptide No. 265], the IC50 was 27 µM.
In the case of AGGGCVTGHFGGIYCNTQGTGGGK (disulfide; C-terminal amide) [SEQ ID NO:7], the IC50 is reported as 33 µM.
Work on QRFDTGHFGGLYPXNGP (Dab at 14; side-chain lactam bridge Asp 4-Dab 14; C-terminal amide) [Peptide No. 38] yielded an IC50 of 68 µM.
QRFKTGHFGGLYPENGP (side-chain lactam bridge Lys 4-Glu 14; C-terminal amide) [Peptide No. 73] was tested, and the IC50 was 33 µM.
Work on QRFDTGHFGGLYPXNGP (Orn at 14; side-chain lactam bridge Asp 4-Orn 14; C-terminal amide) [Peptide No. 85] yielded an IC50 of 16 µM.
In the case of QRFDTGHFGALYPKNGP (D-Ala at 10; side-chain lactam bridge Asp 4-Lys 14; C-terminal amide) [Peptide No. 105], the IC50 is reported as 12 µM.
With FDTGHFGGLYPKNGP (side-chain lactam bridge Asp 2-Lys 12; C-terminal amide) [Peptide No. 124] the IC50 was 22 µM.
Work on RFDTGHFGGLYPKNGP (side-chain lactam bridge Asp 3-Lys 13; C-terminal amide) [Peptide No. 125] yielded an IC50 of 9.4 µM.
For QRFVTGHFGPLYPYNGP (D-Pro at 10; linear; C-terminal amide) [Peptide No. 171], the IC50 was 150 µM.
Binder QRFVTGHFGPLYPWNGP (D-Pro at 10; linear; C-terminal amide) [Peptide No. 172] has an IC50 of 150 µM.
